# Assay results taken from PubChem BioAssay (NCI).
#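 48-hour exposure; five concentrations; linearly interpolated endpoints. Abbreviation: GI50, concentration required for 50% inhibition of growth. Definition used: TGI = concentration required for complete inhibition of growth.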
# How the values were obtained:
# Assay in all cases: growth of human tumour cells (NCI), 48 h
# MDA-MB-435 = test system: MDA-MB-435
# SK-MEL-28 melanoma = test system: SK-MEL-28 melanoma
# DU-145 prostate = test system: DU-145 prostate
# HT29 colon = test system: HT29 colon
# LOX IMVI melanoma = test system: LOX IMVI melanoma
# NCI/ADR-RES ovarian = test system: NCI/ADR-RES ovarian
# UO-31 renal = test system: UO-31 renal
# NCI-H226 lung = test system: NCI-H226 lung
# OVCAR-5 ovarian = test system: OVCAR-5 ovarian
# A498 renal = test system: A498 renal
# SW-620 colon = test system: SW-620 colon
# A549 NSCLC = test system: A549 NSCLC
# CAKI-1 renal = test system: CAKI-1 renal
# SNB-19 CNS = test system: SNB-19 CNS
# SK-MEL-5 melanoma = test system: SK-MEL-5 melanoma
# BT-549 breast = test system: BT-549 breast
# SN12C renal = test system: SN12C renal
# NCI-H522 lung = test system: NCI-H522 lung
# KM12 colon = test system: KM12 colon
# UACC-62 melanoma = test system: UACC-62 melanoma
# OVCAR-3 ovarian = test system: OVCAR-3 ovarian
# OVCAR-4 ovarian = test system: OVCAR-4 ovarian
# HCC-2998 colon = test system: HCC-2998 colon
# IGROV1 ovarian = test system: IGROV1 ovarian
# M14 melanoma = test system: M14 melanoma
# T-47D breast = test system: T-47D breast
# ACHN renal = test system: ACHN renal
# CCRF-CEM leukemia = test system: CCRF-CEM leukemia
# MOLT-4 leukemia = test system: MOLT-4 leukemia
# SR leukemia = test system: SR leukemia
# OVCAR-8 ovarian = test system: OVCAR-8 ovarian
# SF-295 CNS = test system: SF-295 CNS
# PC-3 prostate = test system: PC-3 prostate
# RPMI-8226 leukemia = test system: RPMI-8226 leukemia
# HOP-92 NSCLC = test system: HOP-92 NSCLC
# 786-0 renal = test system: 786-0 renal
# NCI-H23 lung = test system: NCI-H23 lung
# K-562 leukemia = test system: K-562 leukemia
# RXF 393 renal = test system: RXF 393 renal
# U251 CNS = test system: U251 CNS
# MDA-MB-231 breast = test system: MDA-MB-231 breast
# SF-268 CNS = test system: SF-268 CNS
# NCI-H322M lung = test system: NCI-H322M lung
# MALME-3M melanoma = test system: MALME-3M melanoma
# HCT-116 colon = test system: HCT-116 colon
# TK-10 renal = test system: TK-10 renal
# HS 578T breast = test system: HS 578T breast
# HCT-15 colon = test system: HCT-15 colon
# SK-MEL-2 melanoma = test system: SK-MEL-2 melanoma
# NCI-H460 lung = test system: NCI-H460 lung
# EKVX NSCLC = test system: EKVX NSCLC
# HL-60(TB) leukemia = test system: HL-60(TB) leukemia
# UACC-257 melanoma = test system: UACC-257 melanoma
# MDA-N = test system: MDA-N
# HOP-62 NSCLC = test system: HOP-62 NSCLC
structure (smiles),measurement,setting,value
[N-]=[N+]=NCC(O)CN=[N+]=[N-] (stereo not given),GI50,MDA-MB-435,> 100 µM
same,TGI,MDA-MB-435,> 100 µM
same,GI50,SK-MEL-28 melanoma,> 100 µM
same,TGI,SK-MEL-28 melanoma,> 100 µM
same,GI50,DU-145 prostate,> 100 µM
same,TGI,DU-145 prostate,> 100 µM
same,GI50,HT29 colon,> 100 µM
same,TGI,HT29 colon,> 100 µM
same,GI50,LOX IMVI melanoma,> 100 µM
same,TGI,LOX IMVI melanoma,> 100 µM
same,GI50,NCI/ADR-RES ovarian,> 100 µM
same,TGI,NCI/ADR-RES ovarian,> 100 µM
same,GI50,UO-31 renal,> 100 µM
same,TGI,UO-31 renal,> 100 µM
same,GI50,NCI-H226 lung,95.1 µM
same,TGI,NCI-H226 lung,> 100 µM
same,GI50,OVCAR-5 ovarian,> 100 µM
same,TGI,OVCAR-5 ovarian,> 100 µM
same,GI50,A498 renal,> 100 µM
same,TGI,A498 renal,> 100 µM
same,GI50,SW-620 colon,> 100 µM
same,TGI,SW-620 colon,> 100 µM
same,GI50,A549 NSCLC,> 100 µM
same,TGI,A549 NSCLC,> 100 µM
same,GI50,CAKI-1 renal,> 100 µM
same,TGI,CAKI-1 renal,> 100 µM
same,GI50,SNB-19 CNS,> 100 µM
same,TGI,SNB-19 CNS,> 100 µM
same,GI50,SK-MEL-5 melanoma,> 100 µM
same,TGI,SK-MEL-5 melanoma,> 100 µM
same,GI50,BT-549 breast,> 100 µM
same,TGI,BT-549 breast,> 100 µM
same,GI50,SN12C renal,> 100 µM
same,TGI,SN12C renal,> 100 µM
same,GI50,NCI-H522 lung,> 100 µM
same,TGI,NCI-H522 lung,> 100 µM
same,GI50,KM12 colon,> 100 µM
same,TGI,KM12 colon,> 100 µM
same,GI50,UACC-62 melanoma,> 100 µM
same,TGI,UACC-62 melanoma,> 100 µM
same,GI50,OVCAR-3 ovarian,> 100 µM
same,TGI,OVCAR-3 ovarian,> 100 µM
same,GI50,OVCAR-4 ovarian,> 100 µM
same,TGI,OVCAR-4 ovarian,> 100 µM
same,GI50,HCC-2998 colon,> 100 µM
same,TGI,HCC-2998 colon,> 100 µM
same,GI50,IGROV1 ovarian,> 100 µM
same,TGI,IGROV1 ovarian,> 100 µM
same,GI50,M14 melanoma,> 100 µM
same,TGI,M14 melanoma,> 100 µM
same,GI50,T-47D breast,> 100 µM
same,TGI,T-47D breast,> 100 µM
same,GI50,ACHN renal,> 100 µM
same,TGI,ACHN renal,> 100 µM
same,GI50,CCRF-CEM leukemia,> 100 µM
same,TGI,CCRF-CEM leukemia,> 100 µM
same,GI50,MOLT-4 leukemia,> 100 µM
same,TGI,MOLT-4 leukemia,> 100 µM
same,GI50,SR leukemia,> 100 µM
same,TGI,SR leukemia,> 100 µM
same,GI50,OVCAR-8 ovarian,> 100 µM
same,TGI,OVCAR-8 ovarian,> 100 µM
same,GI50,SF-295 CNS,> 100 µM
same,TGI,SF-295 CNS,> 100 µM
same,GI50,PC-3 prostate,> 100 µM
same,TGI,PC-3 prostate,> 100 µM
same,GI50,RPMI-8226 leukemia,> 100 µM
same,TGI,RPMI-8226 leukemia,> 100 µM
same,GI50,HOP-92 NSCLC,> 100 µM
same,TGI,HOP-92 NSCLC,> 100 µM
same,GI50,786-0 renal,> 100 µM
same,TGI,786-0 renal,> 100 µM
same,GI50,NCI-H23 lung,> 100 µM
same,TGI,NCI-H23 lung,> 100 µM
same,GI50,K-562 leukemia,> 100 µM
same,TGI,K-562 leukemia,> 100 µM
same,GI50,RXF 393 renal,> 100 µM
same,TGI,RXF 393 renal,> 100 µM
same,GI50,U251 CNS,> 100 µM
same,TGI,U251 CNS,> 100 µM
same,GI50,MDA-MB-231 breast,> 100 µM
same,TGI,MDA-MB-231 breast,> 100 µM
same,GI50,SF-268 CNS,> 100 µM
same,TGI,SF-268 CNS,> 100 µM
same,GI50,NCI-H322M lung,> 100 µM
same,TGI,NCI-H322M lung,> 100 µM
same,GI50,MALME-3M melanoma,> 100 µM
same,TGI,MALME-3M melanoma,> 100 µM
same,GI50,HCT-116 colon,> 100 µM
same,TGI,HCT-116 colon,> 100 µM
same,GI50,TK-10 renal,> 100 µM
same,TGI,TK-10 renal,> 100 µM
same,GI50,HS 578T breast,> 100 µM
same,TGI,HS 578T breast,> 100 µM
same,GI50,HCT-15 colon,> 100 µM
same,TGI,HCT-15 colon,> 100 µM
same,GI50,SK-MEL-2 melanoma,> 100 µM
same,TGI,SK-MEL-2 melanoma,> 100 µM
same,GI50,NCI-H460 lung,> 100 µM
same,TGI,NCI-H460 lung,> 100 µM
same,GI50,EKVX NSCLC,> 100 µM
same,TGI,EKVX NSCLC,> 100 µM
same,GI50,HL-60(TB) leukemia,> 100 µM
same,TGI,HL-60(TB) leukemia,> 100 µM
same,GI50,UACC-257 melanoma,> 100 µM
same,TGI,UACC-257 melanoma,> 100 µM
same,GI50,MDA-N,> 100 µM
same,TGI,MDA-N,> 100 µM
same,GI50,HOP-62 NSCLC,> 100 µM
same,TGI,HOP-62 NSCLC,> 100 µM
